Measured values taken from patent publication US20090227619A1, “Harmine derivatives, intermediates used in their preparations, preparation processes and use therefo” (priority 2003, published 2009).

System: Kunming mice
Conditions: single i.p.
[1] = 50% male 50% female mice, 122.9 mg/kg
[2] = 50% male 50% female mice, 153.6 mg/kg
[3] = 50% male 50% female mice, 192 mg/kg
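Further: acute toxicity in Kunming mice grouped by sex, one intraperitoneal dose at five graded levels in Tween-80 plus 0.5% CMC-Na, deaths monitored over two weeks.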

Row | Compound | Death rate [1] | Death rate [2] | Death rate [3] | Death rate (female mice, 122.9 mg/kg) | Death rate (male mice, 122.9 mg/kg) | Death rate (male mice, 153.6 mg/kg) | Death rate (female mice, 153.6 mg/kg) | Death rate (female mice, 192 mg/kg) | Death rate (male mice, 192 mg/kg)
1 | CCOC(=O)c1cc2c([nH]c3ccccc32)c(C)n1 [Compound 11, ethyl 1-methyl-β-carboline-3-carboxylate] | 0 | 30 | 50 | 0 | 0 | 20 | – | – | –
2 | COC(=O)c1cc2c([nH]c3ccccc32)c(-c2ccc(O)cc2)n1 [Compound 16, methyl 1-(4-hydroxyphenyl)-β-carboline-3-carboxylate] | 0 | 0 | 0 | 0 | 0 | 0 | 0 | 0 | 0
3 | CCOC(=O)c1cc2c3ccccc3n(Cc3ccccc3)c2cn1 [Compound 33, ethyl 9-benzyl-β-carboline-3-carboxylate] | 0 | 0 | 10 | 0 | 0 | 0 | 0 | – | 0
4 | CCCCn1c2ccccc2c2cc(C(=O)O)ncc21 [Compound 36, 9-butyl-β-carboline-3-carboxylic acid] | 0 | 0 | 0 | 0 | 0 | 0 | 0 | 0 | 0
5 | O=C(O)c1cc2c3ccccc3n(Cc3ccccc3)c2cn1 [Compound 37, 9-benzyl-β-carboline-3-carboxylic acid] | 10 | – | 70 | 10 | 0 | – | – | 80 | 60
6 | OCc1cc2c3ccccc3n(Cc3ccccc3)c2cn1 [Compound 42, 9-benzyl-3-hydroxymethyl-β-carboline] | 0 | 0 | – | 0 | 0 | 0 | 0 | – | 0
7 | O=C(O)c1cc2c3ccccc3n(CCCc3ccccc3)c2cn1 [Compound 48, 9-phenylpropyl-β-carboline-3-carboxylic acid] | 0 | 0 | – | 0 | 0 | 0 | 0 | 40 | 20
8 | CCOC(=O)Nc1cc2c3ccccc3n(Cc3ccccc3)c2cn1 [Compound 55, 3-[(ethoxycarbonyl)amino]-9-benzyl-β-carboline] | 0 | 0 | 0 | 0 | 0 | 0 | 0 | 0 | 0
9 | c1ccc(Cn2c3ccccc3c3ccncc32)cc1 [Compound 84, 9-Benzyl-β-carboline] | 0 | 0 | 0 | 0 | 0 | 0 | 0 | 0 | 0

Where two headings read alike, the source gives them in different places.
